From patent US12605424B2 (priority 2019, dated 2026)

Key:
[1] = tested on: C57BL/6 mice exposed to Br2 or Cl2 gas; assay: Acute Br2 (600 ppm) or Cl2 (400 ppm) exposure of adult mice, hemopexin IM 1 h later: RBC damage and ENaC activity; conditions: for RBC plasma membrane protein carbonyl adducts: RBCs 1-day post exposure
[2] = tested on: mice and rats exposed to Cl2 gas; conditions: IM injection of nitrite, post-Cl2 gas exposure; cited from earlier work
[3] = Br2, hemopexin 4 mg/kg BW, lungs 24 h post exposure
[4] = single intramuscular injection of hemopexin (4 μg/kg body weight), one-hour post halogen gas exposure

Row | Substance | RBC plasma membrane protein carbonyl adducts ([1]; Br2 600 ppm 30 min, hemopexin 4 mg/kg BW IM 1 h later) | open probability (P0) of 4 pS channels in AT2 cells [1, 3] | open probability (P0) of 16 pS channels in AT2 cells [1, 3] | RBC plasma membrane protein carbonyl adducts ([1]; Cl2 400 ppm 30 min, hemopexin 4 mg/kg BW IM 1 h later) | RBC hemolysis under mechanical stress ([1]; mice exposed to Br2 or Cl2 gas, hemopexin 4 mg/kg BW IM 1 h later) | lung ENaC activity [1, 4] | plasma CFH [1, 4] | ALI and reactive airways [2]
1 | Hemopexin | attenuated | significant recovery | significant recovery | attenuated | reduced RBC hemolysis | improved lung ENaC activity | decreased plasma CFH | –
2 | nitrite | – | – | – | – | – | – | – | decreases ALI and reactive airways
